Assay results reported in ChEMBL document CHEMBL3632588 (Medchemcomm, 2015).

Key:
Type in all cases: functional
MCF7 = test: Antiproliferative activity against human MCF7 cells assessed as cell growth at 20 uM after 72 hrs by colorimetry
HeLa = test: Antiproliferative activity against human HeLa cells assessed as cell growth at 20 uM after 72 hrs by colorimetry
B16F0 = test: Antiproliferative activity against mouse B16F0 cells assessed as cell growth at 20 uM after 72 hrs by colorimetry
LM3 = test: Antiproliferative activity against mouse LM3 cells assessed as cell growth at 20 uM after 72 hrs by colorimetry

| SMILES | Activity (MCF7) [%] | Activity (HeLa) [%] | Activity (B16F0) [%] | Activity (LM3) [%] |
| --- | --- | --- | --- | --- |
| COC(=O)[C@@H]1N2C(=O)C(Br)(Br)[C@H]2S[C@@]1(C)CSc1nnn[nH]1 | 80 | 71 | 61 | 90 |
| COC(=O)[C@@H]1N2C(=O)[C@H](Cl)[C@H]2S[C@@]1(C)CCl | 63 | 70 | 81 | 90 |
| COC(=O)[C@@H]1N2C(=O)[C@H](Br)[C@H]2S[C@@]1(C)CCl | 90 | 81 | 80 | 69 |
